# Source: ChEMBL document CHEMBL1156056, “Phosphoinositide-3-kinase (PI3K) inhibitors: identification of new scaffolds using virtual screening” (Bioorg Med Chem Lett, 2009)
# The chains behind the UniProt entries cited, without tags or fusion partners. Where a name states a change or a piece, a line headed by the entry shows the natural chain unless it says otherwise.
# UniProt P42338: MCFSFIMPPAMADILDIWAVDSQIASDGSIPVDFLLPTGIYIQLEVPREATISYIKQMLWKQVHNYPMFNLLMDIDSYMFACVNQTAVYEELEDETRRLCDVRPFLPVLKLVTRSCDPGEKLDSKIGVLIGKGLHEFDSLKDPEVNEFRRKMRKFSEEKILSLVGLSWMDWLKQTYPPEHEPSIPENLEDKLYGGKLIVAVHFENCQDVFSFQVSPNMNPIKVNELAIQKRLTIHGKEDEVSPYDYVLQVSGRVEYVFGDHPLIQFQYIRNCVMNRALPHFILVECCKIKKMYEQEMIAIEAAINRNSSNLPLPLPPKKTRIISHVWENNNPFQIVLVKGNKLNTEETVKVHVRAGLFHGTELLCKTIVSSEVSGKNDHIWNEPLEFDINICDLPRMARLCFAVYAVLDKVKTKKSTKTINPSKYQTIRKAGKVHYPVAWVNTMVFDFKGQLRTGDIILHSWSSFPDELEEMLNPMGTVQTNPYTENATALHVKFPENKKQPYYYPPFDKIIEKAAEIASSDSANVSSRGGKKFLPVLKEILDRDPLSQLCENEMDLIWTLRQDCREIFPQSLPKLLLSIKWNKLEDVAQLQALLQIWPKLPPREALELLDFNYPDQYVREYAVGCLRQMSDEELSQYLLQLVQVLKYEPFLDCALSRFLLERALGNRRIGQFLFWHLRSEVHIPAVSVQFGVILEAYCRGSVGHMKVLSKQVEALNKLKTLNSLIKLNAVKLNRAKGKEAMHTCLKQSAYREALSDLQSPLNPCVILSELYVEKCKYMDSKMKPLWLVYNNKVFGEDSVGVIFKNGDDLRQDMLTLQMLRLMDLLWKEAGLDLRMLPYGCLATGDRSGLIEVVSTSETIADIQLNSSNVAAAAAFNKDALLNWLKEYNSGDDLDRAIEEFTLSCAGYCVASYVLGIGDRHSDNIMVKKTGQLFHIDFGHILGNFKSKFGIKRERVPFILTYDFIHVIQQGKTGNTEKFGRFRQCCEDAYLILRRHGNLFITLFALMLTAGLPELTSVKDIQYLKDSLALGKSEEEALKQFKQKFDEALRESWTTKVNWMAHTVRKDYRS
# Experiments:
# [1] = Inhibition of bovine recombinant PI3Kgamma expressed in baculovirus-infected Sf21 cells; parameters: species or system Bos taurus
# [2] = target: Phosphatidylinositol 4,5-bisphosphate 3-kinase catalytic subunit beta isoform (Homo sapiens, UniProt P42338); experiment: Inhibition of human recombinant PI3Kbeta expressed in baculovirus-infected Sf21 cells
smiles,measurement,setting,value
O=c1cc(N2CCOCC2)oc2c(-c3ccccc3)cccc12 [LY-294002],IC50,[1],7 µM
same,IC50,[2],0.9 µM
